Measured values taken from ChEMBL document CHEMBL1687927, “Design and optimization of potent and orally bioavailable tetrahydronaphthalene Raf inhibitors” (J Med Chem, 2011).

Sequences of proteins named here, by UniProt entry; tags and fusion partners are left off. Residues count along the entry.
UniProt P15056, 2-766 V600E limits assumed: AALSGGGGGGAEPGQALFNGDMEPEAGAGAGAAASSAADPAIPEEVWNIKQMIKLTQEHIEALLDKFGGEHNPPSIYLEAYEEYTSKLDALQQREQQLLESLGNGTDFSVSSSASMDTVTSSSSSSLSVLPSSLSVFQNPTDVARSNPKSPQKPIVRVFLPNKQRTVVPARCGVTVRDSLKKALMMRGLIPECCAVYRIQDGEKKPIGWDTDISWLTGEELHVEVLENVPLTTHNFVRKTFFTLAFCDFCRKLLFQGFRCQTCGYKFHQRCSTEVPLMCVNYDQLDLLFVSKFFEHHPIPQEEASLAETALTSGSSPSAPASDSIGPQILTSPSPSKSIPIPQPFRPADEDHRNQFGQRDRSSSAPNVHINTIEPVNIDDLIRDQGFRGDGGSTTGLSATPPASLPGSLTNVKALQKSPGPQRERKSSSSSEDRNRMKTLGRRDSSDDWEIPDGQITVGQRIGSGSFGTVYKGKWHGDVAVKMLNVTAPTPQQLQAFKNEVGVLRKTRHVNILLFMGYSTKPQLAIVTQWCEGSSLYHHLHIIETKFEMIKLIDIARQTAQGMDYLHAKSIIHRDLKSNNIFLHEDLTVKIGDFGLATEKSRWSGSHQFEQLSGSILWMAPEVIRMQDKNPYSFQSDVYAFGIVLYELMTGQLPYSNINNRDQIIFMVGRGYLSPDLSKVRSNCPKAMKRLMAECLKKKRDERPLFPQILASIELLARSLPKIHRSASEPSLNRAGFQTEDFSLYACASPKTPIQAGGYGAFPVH

Molecular target: Serine/threonine-protein kinase B-raf (Homo sapiens, UniProt P15056, V600E)

IC50: 7 nM
Structure (SMILES): CC(=O)Nc1cc(Oc2ccc3c(c2)C[C@@H](C(=O)Nc2cc(CN)cc(C(F)(F)F)c2)CC3)ccn1
